Molecular target: I2286T mPIEZO1 (Mus musculus, UniProt E2JF22, I2286T)
Test: Intracellular Ca2+ measurement (fura-2), T-REx-293 cells stably transfected
Conditions: time course 0-120 s, time (s) in the cell to the left, Figure 3f
Method: T-REx-293 cell line was transfected with pcDNA4/TO-mPIEZO1 constructs using Lipofectamine 2000 (Invitrogen) as above and treated with 200 μg.mL^−1 zeocin (InvivoGen) to select for stably transfected cells. At least two strongly expressing clonal cell lines were established and tested for each variant. All cell lines were maintained in Dulbecco’s Modified Eagle’s medium (Invitrogen) supplemented with 10% heat-inactivated fetal calf serum (Sigma-Aldrich), penicillin (50 units.mL^−1) and streptomycin (0.5 mg.mL^−1) (Sigma-Aldrich) and grown at 37°C in a humidified 5% CO2 incubator.
For intracellular Ca^2+ assays, cells were plated at 80–90% confluence in 96-well plates 24 h prior to recordings (6–8 × 10^4 cells per well). To measure intracellular Ca^2+, cells were incubated for 1 h at 37°C in standard bath solution (SBS) of composition 135 mM NaCl, 5 mM KCl, 1.2 mM MgCl2, 1.5 mM CaCl2, 8 mM glucose and 10 mM HEPES (pH titrated to 7.4 using NaOH) containing 2 μM fura-2-acetoxymethyl ester (fura-2-AM, Molecular Probes) with 0.01% weight/volume pluronic acid. Cells were washed with SBS and incubated at room temperature for 20 min prior to recordings. Equal volumes of 2x concentrated compounds were injected to test for acute channel activation. Pre-incubation with compounds occurred during the 20 min prior to recordings. To expose cell membranes to hypo-osmolality, an equal volume of hypotonic SBS (containing only 35 mM NaCl) was injected onto the cells. Measurements were made on a fluorescence plate reader (Flexstation III, Molecular Devices) at room temperature (21 ± 2°C). Fura-2 was excited at 340 nm and 380 nm and emitted light collected at 510 nm, with measurements shown as the change in fluorescence (F) ratio (ΔF340/380).
KC41 (Dooku1) was prepared as described.[28] All purchased chemicals and solvents were used without further purification unless otherwise stated. All compounds were at least 95% pure by 1H NMR. 1H Nuclear Magnetic Resonance spectra were recorded at 500 MHz using a Bruker DRX 500 instrument or at 400 MHz using a Bruker DPX 400. 1H spectra are referenced based on the residual proton in the solvent (e.g., the CHCl3, 0.01% in 99.99% CDCl3). Coupling constants (J) are reported to the nearest 0.1 Hz. 13C NMR spectra were recorded at 125 MHz on 500 MHz spectrometers or at 100 MHz on 400 MHz spectrometers. LC-MS was performed on a Bruker Daltronics running a gradient of increasing acetonitrile (5–95%) in H2O both containing 0.1% formic acid at 1 mL.min^−1, on a short path C18 reverse phase column, detecting compounds with both a diode array detector and a Bruker mass spectrum analyser. HRMS was performed on a Bruker Daltonics micrOTOF using positive electrospray ionisation (ES+). Automated column chromatograph was carried out using a Biotage Isolera Four, using either Sfär Silica D or KP-Silica cartridges. HPLC was performed on an Agilent 1290 Infinity Series equipped with a UV detector and Hyperprep C18 reverse phase column. Key to NMR abbreviations: s (singlet), br s (broad singlet) d (doublet), dd (doublet of doublets), ddd (doublet of doublets of doublets), t (triplet), dt (doublet of triples), q (quartet), m (multiplet), ap. t (apparent triplet). For experiments, Yoda1 and its analogues were prepared as 10 mM stock solutions in 100% dimethyl sulfoxide (DMSO) before serial dilution in DMSO and final dilution in aqueous solution. Cells were exposed to 0.1% DMSO for all concentrations of the compounds from 0 to 10 μM.

Sequences of proteins named here, by UniProt entry; tags and fusion partners are left off.
UniProt E2JF22, whole entry I2286T: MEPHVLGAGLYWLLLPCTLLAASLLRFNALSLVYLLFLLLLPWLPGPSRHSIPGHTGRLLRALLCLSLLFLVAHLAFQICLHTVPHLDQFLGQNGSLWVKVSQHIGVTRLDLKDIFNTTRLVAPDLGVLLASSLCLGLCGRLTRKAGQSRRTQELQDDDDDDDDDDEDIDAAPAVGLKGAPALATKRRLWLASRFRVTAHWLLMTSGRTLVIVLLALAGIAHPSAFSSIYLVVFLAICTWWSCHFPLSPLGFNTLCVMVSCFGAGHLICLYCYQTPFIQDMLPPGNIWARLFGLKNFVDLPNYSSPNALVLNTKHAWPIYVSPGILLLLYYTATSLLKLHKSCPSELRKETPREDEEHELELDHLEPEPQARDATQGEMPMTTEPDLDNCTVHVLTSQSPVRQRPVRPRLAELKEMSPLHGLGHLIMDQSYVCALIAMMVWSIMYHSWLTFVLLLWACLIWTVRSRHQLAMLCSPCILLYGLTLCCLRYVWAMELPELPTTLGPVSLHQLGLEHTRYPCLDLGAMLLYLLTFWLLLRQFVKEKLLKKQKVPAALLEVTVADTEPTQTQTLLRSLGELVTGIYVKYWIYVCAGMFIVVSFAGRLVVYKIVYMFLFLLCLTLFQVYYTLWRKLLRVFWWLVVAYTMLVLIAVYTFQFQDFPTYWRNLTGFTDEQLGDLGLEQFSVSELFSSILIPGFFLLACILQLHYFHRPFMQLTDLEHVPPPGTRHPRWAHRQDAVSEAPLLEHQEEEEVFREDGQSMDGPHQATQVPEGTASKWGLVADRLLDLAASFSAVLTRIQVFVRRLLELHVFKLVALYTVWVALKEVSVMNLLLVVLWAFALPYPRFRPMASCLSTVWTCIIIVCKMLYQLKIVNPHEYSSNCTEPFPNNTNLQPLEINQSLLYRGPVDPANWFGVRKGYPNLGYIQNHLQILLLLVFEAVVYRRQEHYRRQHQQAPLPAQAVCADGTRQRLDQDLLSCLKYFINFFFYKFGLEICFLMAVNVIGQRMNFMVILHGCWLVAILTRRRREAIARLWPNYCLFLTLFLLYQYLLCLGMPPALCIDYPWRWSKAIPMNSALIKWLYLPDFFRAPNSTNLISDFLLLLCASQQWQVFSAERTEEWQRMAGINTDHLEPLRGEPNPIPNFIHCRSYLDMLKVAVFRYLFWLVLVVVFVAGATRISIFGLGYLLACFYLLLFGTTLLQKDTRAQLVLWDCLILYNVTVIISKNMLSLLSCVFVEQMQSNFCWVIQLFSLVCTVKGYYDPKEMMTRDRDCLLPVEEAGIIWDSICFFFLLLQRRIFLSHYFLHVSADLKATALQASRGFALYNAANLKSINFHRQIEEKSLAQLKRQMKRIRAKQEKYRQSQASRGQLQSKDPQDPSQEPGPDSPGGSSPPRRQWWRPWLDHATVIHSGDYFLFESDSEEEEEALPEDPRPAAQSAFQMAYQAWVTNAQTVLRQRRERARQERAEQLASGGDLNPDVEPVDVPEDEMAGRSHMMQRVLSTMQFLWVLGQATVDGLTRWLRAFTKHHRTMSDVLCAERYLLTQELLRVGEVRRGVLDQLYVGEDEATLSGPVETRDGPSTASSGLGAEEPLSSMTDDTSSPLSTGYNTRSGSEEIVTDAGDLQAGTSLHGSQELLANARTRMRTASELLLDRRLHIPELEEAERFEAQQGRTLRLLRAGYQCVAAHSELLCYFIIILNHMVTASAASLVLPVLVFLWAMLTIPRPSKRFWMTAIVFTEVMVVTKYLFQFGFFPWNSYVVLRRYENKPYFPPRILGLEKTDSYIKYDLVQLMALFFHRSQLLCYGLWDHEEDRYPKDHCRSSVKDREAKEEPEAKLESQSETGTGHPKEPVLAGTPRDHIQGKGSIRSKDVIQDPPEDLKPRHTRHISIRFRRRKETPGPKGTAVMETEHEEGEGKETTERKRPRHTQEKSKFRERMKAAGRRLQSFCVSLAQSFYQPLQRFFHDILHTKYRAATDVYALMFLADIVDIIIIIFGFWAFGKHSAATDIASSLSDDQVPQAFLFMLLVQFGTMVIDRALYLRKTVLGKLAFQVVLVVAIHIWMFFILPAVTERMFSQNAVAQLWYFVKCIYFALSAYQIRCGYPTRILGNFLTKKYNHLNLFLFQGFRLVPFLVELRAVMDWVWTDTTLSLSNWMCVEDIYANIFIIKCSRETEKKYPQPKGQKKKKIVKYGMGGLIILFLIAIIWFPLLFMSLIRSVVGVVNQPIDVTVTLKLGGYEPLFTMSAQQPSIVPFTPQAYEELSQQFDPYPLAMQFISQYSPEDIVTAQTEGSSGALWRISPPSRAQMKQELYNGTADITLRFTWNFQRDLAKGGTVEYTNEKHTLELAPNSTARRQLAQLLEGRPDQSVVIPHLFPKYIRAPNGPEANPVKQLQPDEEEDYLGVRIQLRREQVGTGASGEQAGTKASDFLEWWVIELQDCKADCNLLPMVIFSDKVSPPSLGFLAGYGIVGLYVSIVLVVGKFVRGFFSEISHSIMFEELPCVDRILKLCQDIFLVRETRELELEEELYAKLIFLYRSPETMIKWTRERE

Compound: Clc1cccc(Cl)c1CSc1nnc(-c2cnccn2)s1 [Yoda1]
- fluorescence (Yoda1 0.03 µM, time 0 s): 0.00215
- fluorescence (Yoda1 0.03 µM, time 55 s): 0.02362
- fluorescence (Yoda1 0.1 µM, time 0 s): -0.00356
- fluorescence (Yoda1 0.1 µM, time 60 s): 0.01948
- fluorescence (Yoda1 0.1 µM, time 115 s): 0.02288
- fluorescence (Yoda1 0.3 µM, time 0 s): -0.01005
- fluorescence (Yoda1 0.3 µM, time 5 s): 0.00236
- fluorescence (Yoda1 0.3 µM, time 10 s): 0.01222
- fluorescence (Yoda1 0.3 µM, time 15 s): 0.01013
- fluorescence (Yoda1 0.3 µM, time 20 s): -0.01479
- fluorescence (Yoda1 0.3 µM, time 30 s): -0.215
- fluorescence (Yoda1 0.3 µM, time 35 s): -0.1069
- fluorescence (Yoda1 0.3 µM, time 40 s): 0.08375
- fluorescence (Yoda1 0.3 µM, time 45 s): 0.121
- fluorescence (Yoda1 0.3 µM, time 50 s): 0.1451
- fluorescence (Yoda1 0.3 µM, time 55 s): 0.1282
- fluorescence (Yoda1 0.3 µM, time 105 s): 0.07106
- fluorescence (Yoda1 1 µM, time 0 s): 0.00208
- fluorescence (Yoda1 1 µM, time 5 s): -0.00755
- fluorescence (Yoda1 1 µM, time 10 s): -0.00797
- fluorescence (Yoda1 1 µM, time 15 s): 0.0039
- fluorescence (Yoda1 1 µM, time 20 s): -0.00108
- fluorescence (Yoda1 1 µM, time 25 s): 0.01062
- fluorescence (Yoda1 1 µM, time 30 s): -0.3122
- fluorescence (Yoda1 1 µM, time 35 s): -0.1435
- fluorescence (Yoda1 1 µM, time 40 s): 0.1875
- fluorescence (Yoda1 1 µM, time 45 s): 0.321
- fluorescence (Yoda1 1 µM, time 50 s): 0.3615
- fluorescence (Yoda1 1 µM, time 100 s): 0.2708
- fluorescence (Yoda1 3 µM, time 5 s): 0.00612
- fluorescence (Yoda1 3 µM, time 55 s): 0.782
- fluorescence (Yoda1 3 µM, time 60 s): 0.7956
- fluorescence (Yoda1 3 µM, time 65 s): 0.8166
- fluorescence (Yoda1 3 µM, time 70 s): 0.8058
- fluorescence (Yoda1 3 µM, time 75 s): 0.7837
- fluorescence (Yoda1 3 µM, time 80 s): 0.754
- fluorescence (Yoda1 3 µM, time 85 s): 0.6951
- fluorescence (Yoda1 3 µM, time 90 s): 0.6727
- fluorescence (Yoda1 3 µM, time 95 s): 0.6738
- fluorescence (Yoda1 3 µM, time 100 s): 0.6585
- fluorescence (Yoda1 3 µM, time 105 s): 0.6319
- fluorescence (Yoda1 5 µM, time 0 s): 0.0063
- fluorescence (Yoda1 5 µM, time 55 s): 1.264
- fluorescence (Yoda1 5 µM, time 60 s): 1.335
- fluorescence (Yoda1 5 µM, time 65 s): 1.347
- fluorescence (Yoda1 5 µM, time 70 s): 1.32
- fluorescence (Yoda1 5 µM, time 75 s): 1.293
- fluorescence (Yoda1 5 µM, time 80 s): 1.215
- fluorescence (Yoda1 5 µM, time 85 s): 1.202
- fluorescence (Yoda1 5 µM, time 90 s): 1.154
- fluorescence (Yoda1 5 µM, time 95 s): 1.1194
- fluorescence (Yoda1 5 µM, time 100 s): 1.065
- fluorescence (Yoda1 5 µM, time 105 s): 1.057
- fluorescence (Yoda1 5 µM, time 110 s): 1.042
- fluorescence (Yoda1 5 µM, time 115 s): 0.9808
- fluorescence (Yoda1 5 µM, time 120 s): 0.94
- fluorescence (Yoda1 10 µM, time 0 s): 0.00662
- fluorescence (Yoda1 10 µM, time 50 s): 1.54
- fluorescence (Yoda1 10 µM, time 100 s): 1.671
